Assay [1] has as its target T1, Mitogen-activated protein kinase 10 (Homo sapiens, UniProt P53779). Description: Inhibition of JNK3-mediated c-jun phosphorylation in human HeLa cells after 1 hr incubation. It is filed as cell-based.
In assay [2] the target is T1, Mitogen-activated protein kinase 10. The assay is described as follows: Inhibition of JNK3 (unknown origin) after 1 hr incubation.
Assay [3] shares this target. Description: Inhibition of JNK3-mediated c-jun phosphorylation in human A375 cells after 1 hr incubation. It is filed as cell-based, A-375.
Assay [4] deals with Mitogen-activated protein kinase 9 (Homo sapiens, UniProt P45984). The assay is described as follows: Inhibition of JNK2 (unknown origin).
Assay [5] concerns the target Mitogen-activated protein kinase 8 (Homo sapiens, UniProt P45983). The assay is described as follows: Inhibition of JNK1 (unknown origin).

By UniProt entry, the sequences of proteins in these tests, tags left out. Where a name states a change or a piece, a line headed by the entry shows the natural chain unless it says otherwise.
UniProt P53779: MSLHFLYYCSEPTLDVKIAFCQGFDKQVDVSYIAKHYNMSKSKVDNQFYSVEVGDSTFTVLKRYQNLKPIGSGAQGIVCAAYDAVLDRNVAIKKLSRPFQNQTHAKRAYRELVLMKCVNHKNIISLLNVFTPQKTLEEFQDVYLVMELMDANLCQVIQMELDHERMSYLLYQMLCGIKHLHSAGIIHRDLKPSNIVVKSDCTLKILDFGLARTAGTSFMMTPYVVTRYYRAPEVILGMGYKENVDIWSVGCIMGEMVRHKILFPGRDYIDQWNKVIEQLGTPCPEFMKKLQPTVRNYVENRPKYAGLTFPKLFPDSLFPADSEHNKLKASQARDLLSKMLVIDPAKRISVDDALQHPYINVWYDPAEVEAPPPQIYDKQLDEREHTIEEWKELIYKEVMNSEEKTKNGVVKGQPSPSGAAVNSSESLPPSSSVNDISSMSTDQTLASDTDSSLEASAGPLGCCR
UniProt P45984: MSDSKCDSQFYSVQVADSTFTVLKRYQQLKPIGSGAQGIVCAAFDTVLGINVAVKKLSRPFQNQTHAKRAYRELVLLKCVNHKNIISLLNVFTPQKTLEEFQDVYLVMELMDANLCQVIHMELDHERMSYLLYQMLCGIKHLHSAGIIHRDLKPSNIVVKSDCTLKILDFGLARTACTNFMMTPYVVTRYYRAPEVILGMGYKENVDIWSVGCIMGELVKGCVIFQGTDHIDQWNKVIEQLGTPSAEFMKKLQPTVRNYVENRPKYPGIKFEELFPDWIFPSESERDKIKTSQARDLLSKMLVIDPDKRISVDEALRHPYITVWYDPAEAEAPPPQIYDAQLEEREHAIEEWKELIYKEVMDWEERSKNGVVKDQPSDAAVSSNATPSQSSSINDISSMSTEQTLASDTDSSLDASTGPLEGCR
UniProt P45983: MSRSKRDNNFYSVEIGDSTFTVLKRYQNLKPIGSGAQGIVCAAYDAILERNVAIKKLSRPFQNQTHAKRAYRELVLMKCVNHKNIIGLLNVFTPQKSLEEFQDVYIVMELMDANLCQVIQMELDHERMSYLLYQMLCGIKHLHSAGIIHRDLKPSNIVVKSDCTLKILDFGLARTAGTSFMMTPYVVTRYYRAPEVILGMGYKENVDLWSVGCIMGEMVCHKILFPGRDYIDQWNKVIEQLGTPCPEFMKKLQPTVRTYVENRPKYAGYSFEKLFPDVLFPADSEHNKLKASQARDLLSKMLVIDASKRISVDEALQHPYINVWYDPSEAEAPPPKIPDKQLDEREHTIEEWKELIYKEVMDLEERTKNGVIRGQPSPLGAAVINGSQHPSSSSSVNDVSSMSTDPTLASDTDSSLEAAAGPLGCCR

Consider 2 compounds from ChEMBL document CHEMBL3393060, “Inhibitors of c-Jun N-terminal kinases: an update” (J Med Chem, 2015).

As to `Cc1cc(NC(=O)c2cccc(NC(=O)/C=C/CN(C)C)c2)ccc1Nc1nccc(-c2cccnc2)n1`, the IC50 in assay [1] turned out to be 0.486 µM; in assay [2], 0.001 µM; in assay [3] it was 0.338 µM.
On to `O/N=C1/c2ccccc2-c2nc3ccccc3nc21`, for which the Kd came out at 0.36 µM in assay [4] and 0.24 µM in assay [5].
